Amino acid sequences for entries named in this document (tags omitted).
UniProt Q9NY46, whole entry: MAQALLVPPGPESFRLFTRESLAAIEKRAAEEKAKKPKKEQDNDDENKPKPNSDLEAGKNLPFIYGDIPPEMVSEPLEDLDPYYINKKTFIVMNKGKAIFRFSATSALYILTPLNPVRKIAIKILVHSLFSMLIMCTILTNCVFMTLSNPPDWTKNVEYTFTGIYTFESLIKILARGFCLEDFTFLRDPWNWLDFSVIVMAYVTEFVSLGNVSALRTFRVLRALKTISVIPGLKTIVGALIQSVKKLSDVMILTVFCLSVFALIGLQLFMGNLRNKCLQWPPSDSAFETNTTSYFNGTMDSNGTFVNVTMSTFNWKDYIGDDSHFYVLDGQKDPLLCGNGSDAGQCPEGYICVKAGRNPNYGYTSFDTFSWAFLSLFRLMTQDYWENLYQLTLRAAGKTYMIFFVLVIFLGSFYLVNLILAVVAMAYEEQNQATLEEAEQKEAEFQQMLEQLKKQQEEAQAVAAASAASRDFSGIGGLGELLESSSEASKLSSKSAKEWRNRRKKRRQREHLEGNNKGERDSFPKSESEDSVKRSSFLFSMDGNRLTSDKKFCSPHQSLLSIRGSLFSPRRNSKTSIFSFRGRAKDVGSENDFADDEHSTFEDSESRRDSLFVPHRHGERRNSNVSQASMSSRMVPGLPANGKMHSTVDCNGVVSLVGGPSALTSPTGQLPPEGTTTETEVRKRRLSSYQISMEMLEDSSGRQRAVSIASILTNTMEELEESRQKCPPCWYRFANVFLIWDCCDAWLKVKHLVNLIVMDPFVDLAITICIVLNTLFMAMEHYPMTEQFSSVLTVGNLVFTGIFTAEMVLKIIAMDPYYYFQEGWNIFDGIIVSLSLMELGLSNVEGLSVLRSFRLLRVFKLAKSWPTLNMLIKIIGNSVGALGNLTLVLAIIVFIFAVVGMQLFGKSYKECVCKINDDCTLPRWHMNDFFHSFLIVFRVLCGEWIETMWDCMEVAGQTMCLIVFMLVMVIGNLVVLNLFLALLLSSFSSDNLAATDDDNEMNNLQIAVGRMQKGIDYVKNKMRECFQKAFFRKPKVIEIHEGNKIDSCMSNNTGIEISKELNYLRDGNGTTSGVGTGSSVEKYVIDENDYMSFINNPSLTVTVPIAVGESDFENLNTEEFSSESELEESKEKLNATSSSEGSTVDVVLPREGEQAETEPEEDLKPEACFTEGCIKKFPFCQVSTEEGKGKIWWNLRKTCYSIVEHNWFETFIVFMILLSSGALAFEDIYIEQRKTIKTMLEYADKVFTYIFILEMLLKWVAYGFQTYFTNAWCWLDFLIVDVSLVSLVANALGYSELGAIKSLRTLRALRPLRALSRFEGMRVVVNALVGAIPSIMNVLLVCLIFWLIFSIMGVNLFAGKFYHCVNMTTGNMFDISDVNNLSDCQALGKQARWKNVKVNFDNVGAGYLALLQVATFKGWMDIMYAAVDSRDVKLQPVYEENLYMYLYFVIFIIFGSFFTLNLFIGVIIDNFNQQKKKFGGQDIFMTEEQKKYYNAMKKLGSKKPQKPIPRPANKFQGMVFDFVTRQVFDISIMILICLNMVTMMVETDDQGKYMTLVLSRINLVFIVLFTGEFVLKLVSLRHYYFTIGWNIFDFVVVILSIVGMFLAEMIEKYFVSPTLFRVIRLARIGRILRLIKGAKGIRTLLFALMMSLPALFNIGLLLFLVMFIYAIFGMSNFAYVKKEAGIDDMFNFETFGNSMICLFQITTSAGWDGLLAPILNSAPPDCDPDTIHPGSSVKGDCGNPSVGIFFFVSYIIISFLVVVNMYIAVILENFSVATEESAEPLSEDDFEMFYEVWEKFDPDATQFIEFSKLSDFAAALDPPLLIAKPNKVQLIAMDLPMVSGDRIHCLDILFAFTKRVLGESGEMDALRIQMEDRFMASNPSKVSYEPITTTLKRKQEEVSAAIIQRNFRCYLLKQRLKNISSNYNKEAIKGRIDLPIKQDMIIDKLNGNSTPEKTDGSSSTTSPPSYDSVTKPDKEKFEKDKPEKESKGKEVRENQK

In PMC4448990 (Pharmacology Research & Perspectives, 2015):

Experiments:
[1] = target: T1, human Nav1.3 sodium channels (Homo sapiens, UniProt Q9NY46); conditions: ref Wright et al. [2012]; cited from earlier work
[2] = test system: P-glycoprotein or multidrug resistance protein (MRP); conditions: mice; ref Almeida et al. [2009]; Bialer and Soares-da-Silva [2012]; cited from earlier work
[3] = test system: rat NaV1.2 sodium channel; conditions: ref Pires et al. [2012]; cited from earlier work
[4] = test system: sodium channels endogenously expressed in N1E-115 mouse neuroblastoma cells; conditions: cited from earlier work
[5] = plasma and brain concentrations of eslicarbazepine after ESL; assay type: in vivo, mouse; conditions: MES test, ESL 50 mg/kg p.o.
[6] = target: T1, human Nav1.3 sodium channels; assay: whole-cell patch clamp, Nav1.3 in CHO-K1 cells; assay type: cell-based; conditions: for Fast inactivation, individual shifts / Slow inactivation, individual shifts: 250 μmol/L, versus control (bath), mean ± SEM
[7] = 250 μmol/L, ref Hebeisen et al. [2014]

In the case of `NC(=O)N1c2ccccc2C[C@@H](O)c2ccccc21` [R-licarbazepine, reference compound], the “affinity for VGSCs in the resting state relative to CBZ and OXC” value [1] is listed as “about twofold lower than that of CBZ and OXC” and the “brain-to-plasma concentration ratio after verapamil pretreatment” value [2] is listed as “markedly increased the R-licarbazepine brain-to-plasma ratio”.

For `NC(=O)N1c2ccccc2C[C@H](O)c2ccccc21` [eslicarbazepine], the “affinity for VGSCs in the resting state relative to CBZ and OXC” value [1] is listed as “about twofold lower than that of CBZ and OXC”, the “affinity relative to CBZ and OXC in more depolarized conditions” value [1] is listed as “∼threefold lower than CBZ and OXC” and the “affinity relative to OXC and CBZ in more depolarized conditions” value [3] is listed as “∼two- to threefold lower than that of OXC and CBZ”. The “shift of V0.5, voltage dependence of the fast inactivation” value [4, 7] was “not influenced”, the “shift of V0.5, voltage dependence of the slow inactivation” value [4, 7] was −31.2 mV and the “affinity for VGSC in the resting state relative to CBZ, OXC and R-licarbazepine” value ([4]; ref Hebeisen et al. [2011]) was 15- to fivefold lower. The “affinity to the slow inactivated state relative to the resting state” value ([4]; ref Hebeisen et al. [2014]) was 5.9 times, the “concentration in lipid fraction of brain relative to total brain volume” value [5] was 8.3 times and the “concentration in organic fraction of brain relative to total brain volume” value [5] was 4.6 times. For the same molecule, the “Fast inactivation, individual shifts” value [6] was −0.83 mV, the “Slow inactivation, individual shifts” value [6] was −14.40 mV and the “Fast inactivation, individual shifts” value ([6]; listed as Eslicarbazepine) was −0.83 ± 1.04 mV. For the same molecule, the “Slow inactivation, individual shifts” value ([6]; listed as Eslicarbazepine) was −14.40 ± 2.88 mV, the “affinity to the slow inactivated state relative to the resting state” value ([6]; IC50 in slow inactivated versus resting state) was 2.6 times and the “brain-to-plasma concentration ratio after verapamil pretreatment” value [2] was “failed to affect the eslicarbazepine brain-to-plasma concentration ratio”.
